Measurements from PubChem BioAssay AID504634 (The Scripps Research Institute Molecular Screening Center, 2011).
The entries are a selection whose mix differs from that of the whole data set. Active and inactive are the calls of the source. Cut-off read from the data, not from the text of the source: active = inhibition mostly above about 23% (no sharp cut-off); inactive = mostly below about 18%.

Chains of the proteins cited; added tags and fusions are not shown.
UniProt P47898, whole entry, looked up: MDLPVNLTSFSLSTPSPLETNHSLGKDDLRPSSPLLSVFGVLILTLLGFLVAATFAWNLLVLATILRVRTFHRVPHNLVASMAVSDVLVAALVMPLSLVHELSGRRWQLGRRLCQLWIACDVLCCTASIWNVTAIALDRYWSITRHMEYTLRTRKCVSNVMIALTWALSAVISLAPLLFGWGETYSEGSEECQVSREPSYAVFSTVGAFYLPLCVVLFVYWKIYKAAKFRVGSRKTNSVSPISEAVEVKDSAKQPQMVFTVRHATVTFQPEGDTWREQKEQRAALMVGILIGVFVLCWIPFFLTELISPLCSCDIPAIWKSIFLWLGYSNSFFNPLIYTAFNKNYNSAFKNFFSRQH

These compounds were tested against 5-hydroxytryptamine receptor 5A (Homo sapiens) (UniProt P47898) (assay: inverse agonism at human 5-HT5A receptor – cell-based, luminescence, full-deck HTS, counter-screen for OPRM1-OPRD1 heterodimer inverse agonist project, primary screen (AID 504634;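 note: 0% = cells with DMSO and 100% = no-cell wells with DMSO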)). Conditions: HTR5A cell line, at 9.3 µM, hits give high values.

Row | SMILES | inhibition
1 | CCOP(=O)(Nc1cccc2ccccc12)OCC | inactive: 1.76%
2 | COc1cccc(CNc2nc3ccccc3n2CCN2CCCCC2)c1 | inactive: 4.29%
3 | O=C(Nc1ccccc1)N1CCn2c(nc3ccccc32)C1 | inactive: 2.18%
4 | O=C(Nc1ccc2c(c1)nc1n2CCN(C2CCCCC2)C1)c1ccco1 | inactive: -14%
5 | O=C(CSc1nc2ccccc2n1CC(=O)N1CCCC1)Nc1ccc2c(c1)OCO2 | inactive: -13.3%
6 | O=C(CCCCCNC(=O)N1CCn2c1nc1ccccc12)NCc1ccccc1Cl | inactive: 23.4%
7 | O=C(Cn1c(-c2ccccn2)nc2ccccc21)N/N=C/c1ccccn1 | inactive: -10.4%
8 | O=C(Cn1c(NCCO)nc2ccccc21)NCC1CCCO1 (stereo unspecified) | inactive: 11%
9 | Cc1ccc2c(c1)C1CN(C)CCC1N2S(=O)(=O)c1cc(C(F)(F)F)ccc1Cl (stereo unspecified) | inactive: -23.4%
10 | O=C(Cn1c(S(=O)(=O)Cc2ccccc2)nc2ccccc21)N1CCCCC1 | inactive: -45.2%
11 | COCCN1CCn2c(nc3cc(NC(=O)c4cccs4)ccc32)C1 | inactive: -5.16%
12 | CC(=O)Nc1ccc2c(c1)nc1n2CCN(C2CCCCC2)C1 | inactive: -3.55%
13 | CCN(CC)CCn1c(NC(=O)c2ccc(Cl)cc2)nc2ccccc21 | inactive: -6.47%
14 | Cn1c(=O)n(CC(N)=O)c2ccccc21 | inactive: -11.2%
15 | COc1cc(C2NCCC3(OCCO3)C2(C)C)cc(OC)c1OC (stereo unspecified) | inactive: -18.5%
16 | CC(C)[C@H](NC(=O)N1CCn2c1nc1ccccc12)C(=O)N[C@@H](C(=O)O)c1ccccc1 | inactive: 6.68%
17 | CC1CCC2C(=O)N(c3ccc(NC4CCN(Cc5ccccc5)CC4)c([N+](=O)[O-])c3)C(=O)C2C1 (stereo unspecified) | inactive: 0.87%
18 | O=C(Cn1cnc2c(NCc3ccccc3)ncnc21)NCC1CCCO1 (stereo unspecified) | inactive: -5.13%
19 | O=C(Cn1cnc2c(NCc3ccccc3)ncnc21)NCc1ccccn1 | inactive: -3.15%
20 | CCCC(=O)Nc1nnc(/C=C/c2ccc(OC)cc2)s1 | inactive: 6.24%
21 | Cc1ccc2c(c1)C1CN(C)CCC1N2C(=S)Nc1ccc(OC(F)F)cc1 (stereo unspecified) | inactive: 14.2%
22 | CC(=O)Nc1nc2ccccc2n1CCN(C)C | inactive: -2.33%
23 | c1ccc2c(c1)nc1n2CCN1 | inactive: 10%

Row | SMILES | inhibition
24 | Nc1cccc2c([As](=O)(O)O)cccc12 | inactive: -13.6%
25 | O=C(Cn1c(CO)nc2ccccc21)NCCc1ccccc1 | inactive: 26.2%
26 | Cc1ccc(NCCc2c([N+](=O)[O-])cc([N+](=O)[O-])cc2[N+](=O)[O-])cc1 | inactive: -14.9%
27 | O=C(Cn1c(C(F)(F)F)nc2ccccc21)Nc1ccccc1N1CCOCC1 | inactive: -9.53%
28 | COc1ccc(CNC(=O)Cn2cnc3c(OCc4ccccc4)ncnc32)cc1 | inactive: -18.6%
29 | O=C(Nc1nc2ccccc2n1CCN1CCOCC1)c1ccccc1 | inactive: 0.55%
30 | NNC(=O)Cn1cnc2ccccc21 | inactive: -26.2%
31 | Cc1ccc2c(c1)C1CN(C)CCC1N2C(=O)c1ccccc1NS(=O)(=O)c1cccc(C(F)(F)F)c1 (stereo unspecified) | inactive: 1.02%
32 | Oc1ccc(CC2(N3CCCC3)CCCCC2)cc1 | inactive: 4.25%
33 | Cn1c(=O)n(CCc2ccccc2)c(=O)c2c1nc1n2CCN1Cc1ccco1 | inactive: -1.61%
34 | C[C@H](NC(=O)N1CCn2c1nc1ccccc12)C(=O)NCc1ccc(F)cc1 | inactive: 5.05%
35 | CSCC[C@H](NC(=O)N1CCn2c1nc1ccccc12)C(=O)N1CCCCC1 | inactive: -2.44%
36 | CCCOP(=S)(Nc1nc(N)cc(=O)[nH]1)OCCC | inactive: -28.7%
37 | O=C(CSc1nc2ccccc2n1CC(=O)N1CCOCC1)N1CCCC1 | inactive: 15.3%
38 | CCN(CC)CCCNC(=S)N1CCn2c(nc3ccccc32)C1 | inactive: 3.54%
39 | C[C@H](NC(=O)N1CCn2c1nc1ccccc12)C(=O)N1CCCCC1 | inactive: -8.9%
40 | CCc1cccc(CC)c1N(COC)C(=O)Cn1c(CO)nc2ccccc21 | inactive: -0.98%
41 | CSc1nc2ccccc2n1CC(=O)Nc1ccc(C)c(C)c1 | inactive: -2.77%
42 | CCOC(=O)CC[C@H](NC(=O)Cn1cnc2c(SC)nc(N)nc21)C(=O)OCC | inactive: -1.7%
43 | COc1ccc(/C=N/NC(=O)Cn2cnc3c2c(=O)n(C)c(=O)n3C)cc1 | inactive: -22.7%
44 | COC(=O)C1=C(Cn2cnc3ccccc32)NC(=O)NC1c1cc(C)ccc1C (stereo unspecified) | inactive: -1.24%
45 | c1ccc(CN2CCC(Nc3nc(-c4cccnc4)nc4ccccc34)CC2)cc1 | inactive: -5.05%
46 | CC(C)(C)C(=O)NC(Sc1ccccc1)C(Cl)(Cl)Cl (stereo unspecified) | inactive: 5.61%

Row | SMILES | inhibition
47 | O=C(Cn1c(CO)nc2ccccc21)Nc1ccccc1Cl | inactive: -13%
48 | COc1ccc(Cl)cc1NC(=O)CN(C)C(=O)Cn1cnc2c1c(=O)n(C)c(=O)n2C | inactive: -10.4%
49 | CSc1nc2ccccc2n1CC(=O)Nc1c(C)n(C)n(-c2ccccc2)c1=O | inactive: 12.4%
50 | Cc1ccc2c(c1)C1C[N+](C)(CC(=O)c3ccccc3)CCC1N2C(=O)c1ccccc1Cl (stereo unspecified) | inactive: -23.5%
51 | CC(/C=C/c1ccccc1)=N/NC(=O)CCC(=O)Nc1ccccc1C | inactive: -27.7%
52 | COc1cccc(C(=O)CSc2nc3ccccc3n2CC(=O)N2CCOCC2)c1 | inactive: -13.5%
53 | O=C(Cn1c(-c2cncs2)nc2ccccc21)NCCc1ccccc1 | inactive: -13.7%
54 | CCc1cc(O)c([N+](=O)[O-])c(C)c1[N+](=O)[O-] | inactive: 3.31%
55 | CCOC(=O)c1ccc(NC(=O)Cn2c(-c3nonc3N)nc3ccccc32)cc1 | inactive: -75.2%
56 | COCCN1CCn2c(nc3cc(NC(C)=O)ccc32)C1 | inactive: 8.69%
57 | COCCNC(=O)Cn1cnc2c1c(=O)n(C)c(=O)n2C | inactive: 9.53%
58 | CCOc1ccc(C2=NCC(CBr)S2)cc1 (stereo unspecified) | inactive: 4.88%
59 | O=P1(Nc2nc3ccc(Cl)cc3s2)COc2ccccc2O1 (stereo unspecified) | inactive: -8.32%
60 | O=C(Cn1cnc2c(OCc3ccccc3)ncnc21)NCc1ccccc1 | inactive: 11.1%
61 | CCn1c(=O)c2c(nc3n2CCN3c2ccccc2)n(C)c1=O | inactive: -1.48%
62 | CC1CN(C(=O)Cn2cnc3c2c(=O)n(C)c(=O)n3C)CC(C)O1 (stereo unspecified) | inactive: 8.65%
63 | C[C@H](NC(=O)N1CCn2c1nc1ccccc12)C(=O)NCc1ccccc1 | inactive: 10.5%
64 | COc1cccc(CNC(=O)[C@H](CCSC)NC(=O)N2CCn3c2nc2ccccc23)c1 | inactive: -18.7%
65 | Cc1nc2ccccc2n1CC(=O)N1CC(=O)Nc2ccccc21 | inactive: -40.5%
66 | COC(=O)c1ccc(CNC(=O)Cn2cnc3c(NCc4ccccc4)ncnc32)cc1 | inactive: 2.26%
67 | Cc1ccc2c(c1)C1CN(C)CCC1N2C(=O)COc1ccc(N(C)C(=O)c2ccccc2)cc1 (stereo unspecified) | inactive: 3.25%
68 | N=c1n(CCCOc2ccccc2Cl)c2ccccc2n1CC(N)=O | inactive: -12.2%
69 | N#Cc1cccc(NC(=O)Cn2c3[n+](c4ccc(C(F)(F)F)cc42)CCCCC3)c1 | inactive: -12.7%

Row | SMILES | inhibition
70 | O=C(Cn1c(NCCO)nc2ccccc21)Nc1ccc2c(c1)OCCCO2 | inactive: 2.04%
71 | CC(C)CCNC(=O)CC1C(=O)N(Cc2ccccc2)C(C)c2nc3ccccc3n21 (stereo unspecified) | inactive: 4.4%
72 | CC(C)(C)NC(=O)Cn1c(SCC(N)=O)nc2ccccc21 | inactive: -18.2%
73 | O=C(CCNC(=O)N1CCn2c1nc1ccccc12)NCc1ccc(Cl)cc1 | inactive: -9.58%
74 | Cc1cc(NC(=O)CSc2nc3ccccc3n2CC(=O)N2CCC(C)CC2)no1 | inactive: -0.31%
75 | CC(=O)Nc1ccc(Oc2c([N+](=O)[O-])cc([N+](=O)[O-])cc2[N+](=O)[O-])cc1 | inactive: 27.1%
76 | Cc1nc2cc(C(F)(F)F)ccc2n1C1CCN(Cc2nnnn2CCc2ccccc2)CC1 | inactive: -19.2%
77 | Cn1c(=O)c2c(ncn2CC(=O)Nc2cc(S(=O)(=O)N3CCCCC3)ccc2Cl)n(C)c1=O | inactive: -14.6%
78 | CN1C(=O)CC(n2c(CO)nc3ccccc32)C1=O (stereo unspecified) | inactive: 20.6%
79 | CCOC(=O)c1ccc(NC(=O)C2CC(=O)Nc3nc4ccccc4n32)cc1 (stereo unspecified) | inactive: -9.21%
80 | CCC(C(=O)NC1CCCC1)n1c(SCc2cccc(C)c2)nc2ccncc21 (stereo unspecified) | inactive: -18.2%
81 | COc1ccc2c(c1)C1(Nc3ccccc3-c3nc4ccccc4n31)C(=O)N2 (stereo unspecified) | inactive: -15.2%
82 | CC(=O)Nc1ccc([As](=O)(O)O)c(O)c1 | inactive: 2.42%
83 | O=S(=O)(c1ccc(F)cc1)N1CCn2c(nc3ccccc32)C1 | inactive: -16.8%
84 | CSCC[C@H](NC(=O)N1CCn2c1nc1ccccc12)C(=O)NC1CCCCC1 | inactive: -1.16%
85 | CC1=NNC(=O)C1CCC(=O)N/N=C/C=C/c1ccccc1 (stereo unspecified) | inactive: -9.31%
86 | COCCN1CCn2c(nc3cc(NC(=O)Cn4nc(C)c5ccccc5c4=O)ccc32)C1 | inactive: 2.84%
87 | COc1ccc(CCNC(=O)[C@H](C)NC(=O)N2CCn3c2nc2ccccc23)cc1OC | inactive: 0.34%
88 | CC(C)[C@H](NC(=O)N1CCn2c1nc1ccccc12)C(=O)NCc1ccc(F)cc1 | inactive: -0.25%
89 | COCC(=O)N(C)[C@H]1C[C@H]2c3cc(Oc4ccccc4C)ccc3CCN2C(=O)[C@H]1[C@H](C)O | inactive: 0.94%
90 | COc1ccccc1OCC(O)Cn1c(=N)n(CCN2CCCCC2)c2ccccc21 (stereo unspecified) | inactive: -22.4%
91 | CC(C)C[C@H](NC(=O)N1CCn2c1nc1ccccc12)C(=O)NCc1ccccc1 | inactive: -7.44%
